Molecular target: human ACC2 (Homo sapiens (Human), UniProt O00763)
Assay: ACC2 assay (spectrophotometric 384 well assay, NADH-linked kinetic method)
Assay type: biochemical
Conditions: hACC2 construct lacking the 128 N-terminal amino acids; 25° C., 340 nm over 15 minutes

Sequences of proteins named here, by UniProt entry; tags and fusion partners are left off. Residues count along the entry.
UniProt O00763, 129-2458 limits assumed: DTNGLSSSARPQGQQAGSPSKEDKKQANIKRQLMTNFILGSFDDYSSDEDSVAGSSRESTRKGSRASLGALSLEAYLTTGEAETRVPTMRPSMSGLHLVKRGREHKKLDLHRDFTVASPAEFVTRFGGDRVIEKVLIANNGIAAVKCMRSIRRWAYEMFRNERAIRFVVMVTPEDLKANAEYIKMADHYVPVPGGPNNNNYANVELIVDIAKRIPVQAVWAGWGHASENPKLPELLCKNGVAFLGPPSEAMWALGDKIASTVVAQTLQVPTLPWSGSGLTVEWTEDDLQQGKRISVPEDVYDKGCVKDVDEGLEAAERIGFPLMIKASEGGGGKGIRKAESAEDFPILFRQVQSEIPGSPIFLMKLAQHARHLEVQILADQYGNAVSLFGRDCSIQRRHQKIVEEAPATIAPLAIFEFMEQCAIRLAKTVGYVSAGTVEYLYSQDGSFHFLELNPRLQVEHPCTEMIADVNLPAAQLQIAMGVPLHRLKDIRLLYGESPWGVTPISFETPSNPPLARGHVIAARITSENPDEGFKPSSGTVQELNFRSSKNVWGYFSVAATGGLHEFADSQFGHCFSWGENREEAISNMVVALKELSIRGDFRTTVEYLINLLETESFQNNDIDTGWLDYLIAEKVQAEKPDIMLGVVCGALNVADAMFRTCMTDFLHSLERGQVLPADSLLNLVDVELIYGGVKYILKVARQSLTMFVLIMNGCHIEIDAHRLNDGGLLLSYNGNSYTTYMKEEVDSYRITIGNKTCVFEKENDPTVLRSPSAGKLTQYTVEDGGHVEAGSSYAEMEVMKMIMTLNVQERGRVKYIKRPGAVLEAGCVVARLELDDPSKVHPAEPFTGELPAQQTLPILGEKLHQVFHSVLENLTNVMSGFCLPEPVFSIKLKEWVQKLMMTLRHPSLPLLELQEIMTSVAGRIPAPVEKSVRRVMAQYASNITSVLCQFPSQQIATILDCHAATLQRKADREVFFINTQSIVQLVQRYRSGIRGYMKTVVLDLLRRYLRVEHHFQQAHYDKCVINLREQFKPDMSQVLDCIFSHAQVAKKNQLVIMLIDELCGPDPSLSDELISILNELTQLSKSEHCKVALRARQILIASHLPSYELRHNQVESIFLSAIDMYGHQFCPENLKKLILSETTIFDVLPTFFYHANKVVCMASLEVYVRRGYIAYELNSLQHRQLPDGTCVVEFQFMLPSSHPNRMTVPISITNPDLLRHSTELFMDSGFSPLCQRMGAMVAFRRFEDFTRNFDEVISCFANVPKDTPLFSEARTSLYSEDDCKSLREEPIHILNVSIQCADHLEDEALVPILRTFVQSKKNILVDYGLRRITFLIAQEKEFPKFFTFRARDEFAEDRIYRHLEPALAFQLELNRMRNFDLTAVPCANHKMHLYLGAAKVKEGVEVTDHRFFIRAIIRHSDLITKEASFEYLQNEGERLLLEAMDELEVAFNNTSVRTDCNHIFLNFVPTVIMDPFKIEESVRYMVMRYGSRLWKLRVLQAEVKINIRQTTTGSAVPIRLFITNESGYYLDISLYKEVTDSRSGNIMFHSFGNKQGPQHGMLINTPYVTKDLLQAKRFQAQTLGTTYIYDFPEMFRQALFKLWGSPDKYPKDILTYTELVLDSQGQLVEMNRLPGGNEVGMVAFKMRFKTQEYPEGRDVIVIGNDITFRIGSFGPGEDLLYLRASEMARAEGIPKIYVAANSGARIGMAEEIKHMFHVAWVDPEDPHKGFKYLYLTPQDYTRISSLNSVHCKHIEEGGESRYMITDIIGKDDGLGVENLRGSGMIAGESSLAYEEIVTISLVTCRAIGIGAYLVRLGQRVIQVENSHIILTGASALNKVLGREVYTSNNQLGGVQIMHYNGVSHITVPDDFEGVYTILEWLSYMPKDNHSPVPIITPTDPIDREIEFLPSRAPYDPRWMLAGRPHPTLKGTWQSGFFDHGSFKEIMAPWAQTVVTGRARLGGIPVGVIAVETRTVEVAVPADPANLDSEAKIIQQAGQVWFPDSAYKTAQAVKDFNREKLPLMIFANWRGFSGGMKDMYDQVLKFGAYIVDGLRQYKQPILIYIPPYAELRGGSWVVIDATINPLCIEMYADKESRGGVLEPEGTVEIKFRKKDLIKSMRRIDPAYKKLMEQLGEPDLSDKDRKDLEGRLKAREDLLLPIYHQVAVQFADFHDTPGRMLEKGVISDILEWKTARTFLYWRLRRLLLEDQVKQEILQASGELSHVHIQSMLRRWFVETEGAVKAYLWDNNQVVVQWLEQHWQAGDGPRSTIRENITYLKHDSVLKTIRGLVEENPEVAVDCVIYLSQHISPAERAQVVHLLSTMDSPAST

`C=CCNC(=O)C(C)c1ccc(O[C@@H]2CCN(c3nc(N(C)C)ncc3F)C2)cc1` (stereo partly shown) showed an IC50 of 620 nM.
